High-throughput results from PubChem.
An excerpt weighted towards active compounds, which were near 2.3% of everything screened.
MC4R barr agon – agonists of human melanocortin 4 receptor (MC4R) beta-arrestin. P32245. 0.98% of 360,000 active. activation, % at 8.9 µM. U2OS MC4R beta-arrestin complementation, luminescence; percent of melanotan II response, DMSO zero;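 active = activation above a per-plate cutoff, the mean activation of sample wells on that plate plus 3 SD, cut at about 8% in these data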
NRP1-CendR mod – modulators of CendR peptide binding to human neuropilin-1; O14786; FAM-RPARPAR peptide binding to NRP-1, fluorescence polarization; 0.85% of 360,000 active; inhibition, % at 25 µM;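 active = inhibition or corrected inhibition above about 18%, plus a signal ratio from 0.5 to 1.5, limit read from the data, passing the limit was not always enough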
ASAP1 GAP inh – blocks human ASAP1-stimulated Arf1 GTP hydrolysis; Q9ULH1; GDP FP detection; inhibition, % at 16.5 µM; 0.19% of 360,000 active; AID 624377; in the data active = inhibition above about 25%;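 also: 0% = vehicle with enzyme and substrate and 100% = no enzyme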
ARFGAP1 inh – inhibits rat ARF GTPase activating protein 1. Q62848. Arfgap1-stimulated ARF1 GTP hydrolysis, GDP FP detection. inhibition, % at 16.5 µM. 0.26% of 360,000 active;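 active = inhibition above a per-plate limit, mean inhibition of low control wells plus 3 SD, cut at about 25% in these data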;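 also: 0% = DMSO wells with enzyme and 100% = wells lacking Arfgap1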
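Repeats: one replicate per compound; assay system: rat Arfgap1 catalytic domain, aa 1-136; times: enzyme reaction 120 min at 25 °C after 20 min preincubation; detection: FP of antibody-bound GDP Alexa 633 tracer, ex 620/em 688 nm; benchmarks: high control wells lacking Arfgap1, low control full reaction with DMSO; reagent: human ARF1(Δ1-17)-GTP substrate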
MC4R antag cAMP – human MC4R antagonism in cAMP assay; P32245; MC4R-expressing cells, MTII-stimulated cAMP, LANCE TR-FRET; inhibition, % at 6.5 µM; 0.48% of 360,000 active; AID 540295;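 active = inhibition above its plate's cutoff, the mean of tested wells on that plate plus 3 SD, cut at about 29% in these data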;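 also: 0% = Melanotan II alone and 100% = Melanotan II plus saturating MCL0020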
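System: U2OS-MC4R stable cell line; Technique: Eu-cAMP/anti-cAMP TR-FRET, emission 671 nm; Repeats: single well per compound; Also added: Melanotan II; Dosing: one concentration, 6.5 µM nominal; Schedule: 30-min compound, 1-h challenge, 1-h detection, room temperature.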
Yeast UUG start – alters start codon recognition fidelity in yeast | S. cerevisiae UUG-firefly luciferase reporter, luminescence/redox ratio | activity score, % at 18.7 µM | hit rate 0.13% among 350,000 | AID 602363;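 active means replicate mean at a twofold rise or more, about +100% in these data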;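 further: firefly luciferase made from a UUG start codon reports start codon fidelity; reporter light over untreated wells divided by growth signal over untreated wells; some hits fall short of that in this replicate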
ARFGAP1 confirm – rat ARFGAP1 inhibition, confirmed. shares compounds with ARFGAP1 inh. ARFGAP1-stimulated ARF1 GTP hydrolysis, GDP tracer FP. inhibition, % at 16.5 µM. 30% of 890 active. AID 651608;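 active = average inhibition over triplicates above the hit cutoff set in the earlier primary screen, cut at about 25% in these data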;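 also: 0% = Arfgap1 plus ARF1-GTP with DMSO and 100% = wells lacking Arfgap1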
The depositor's hits bear a star; . = no result; ! = repeats disagree.

Structure	MC4R barr agon	NRP1-CendR mod	ASAP1 GAP inh	ARFGAP1 inh	MC4R antag cAMP	Yeast UUG start	ARFGAP1 confirm
CNS(=O)(=O)c1cccc(C(=O)NCC(c2cccs2)N2CCOCC2)c1 (stereo unspecified)	-2	0	2	26*	0	.	-1
COc1ccc(S(=O)(=O)N(C)C[C@@H]2Oc3ccc(NC(=O)NC4CCCCC4)cc3C(=O)N([C@@H](C)CO)C[C@@H]2C)cc1	.	.	.	.	.	-2	.
CN(C)/C=C/C1=C([N+](=O)[O-])C(c2cccc([N+](=O)[O-])c2)NC(=O)N1 (stereo unspecified)	1	11	-3	28*	4	10	4
CCOC(=O)C1CCCN(CCC(=O)Nc2cc(C)ccc2C)C1 (stereo unspecified)	0	-2	17	1	4	-8	.
CCOC(=O)C1CCCN(CCC(=O)Nc2ccccc2C)C1 (stereo unspecified)	-2	23*	7	26*	0	.	-6
CCCNC(=O)Nc1ccc2c(c1)C(=O)N(C)[C@H]1CC[C@H](CC(=O)NC)O[C@@H]1CO2	.	.	.	.	.	-4	.
COc1ccc(-c2nc(C(=O)NCCCN3CCOCC3)cc3c2[nH]c2ccccc23)cc1OC	-1	-3	17	28*	5	-18	14
CCCN1C[C@H](C)[C@@H](OC)CN(C)C(=O)c2ccc(NC(=O)C3CC3)cc2OC[C@@H]1C	.	.	.	.	.	24	.
O=C(CCC1CCCC1)N=C1SC2CS(=O)(=O)CC2N1c1ccccc1F (stereo unspecified)	-1	10	4	-4	8	-8	.
O=C(CCCc1ccccc1)N=C1SC2CS(=O)(=O)CC2N1c1ccccc1F (stereo unspecified)	1	6	9	29*	4	-4	0
O=C(Nc1ccc(CN2CCOCC2)cc1)c1ccc(-c2cc(Cl)ccc2Cl)o1	0	-6	13	37*	-2	-18	25*
O=C1c2c(O)ccc(O)c2C(=O)c2c(NCCNCCO)ccc(NCCNCCO)c21	-3	19	21	25*!	-34	-6	56*
CCCCCc1c(C)nc(N2CCc3ccccc32)[nH]c1=O	-1	-13	6	26*	-4	.	3
Cc1ccc(S(=O)(=O)N(C)C[C@H]2OCCCC[C@H](C)Oc3ccc(NS(=O)(=O)c4cn(C)cn4)cc3C(=O)N([C@H](C)CO)C[C@@H]2C)cc1	.	.	.	.	.	-7	.
Cc1nc(-c2cccc(S(=O)(=O)N3CC(C)CC(C)C3)c2)cs1 (stereo unspecified)	-2	14	-11	26*	4	.	2

Record cards (already shown):
COc1ccc(-c2nc(C(=O)NCCCN3CCOCC3)cc3c2[nH]c2ccccc23)cc1OC in the list: MC4R barr agon: -1; NRP1-CendR mod: -3; ASAP1 GAP inh: 17; ARFGAP1 inh: 28*; MC4R antag cAMP: 5; Yeast UUG start: -18; ARFGAP1 confirm: 14
COc1ccc(S(=O)(=O)N(C)C[C@@H]2Oc3ccc(NC(=O)NC4CCCCC4)cc3C(=O)N([C@@H](C)CO)C[C@@H]2C)cc1 in the list: MC4R barr agon: .; NRP1-CendR mod: .; ASAP1 GAP inh: .; ARFGAP1 inh: .; MC4R antag cAMP: .; Yeast UUG start: -2; ARFGAP1 confirm: .

The results go on.
Structure	MC4R barr agon	NRP1-CendR mod	ASAP1 GAP inh	ARFGAP1 inh	MC4R antag cAMP	Yeast UUG start	ARFGAP1 confirm
CCC(=O)N[C@H]1CC[C@@H](CCn2cc(C3CC3)nn2)O[C@H]1CO	.	.	.	.	.	8	.
Cc1cc(C)c(S(=O)(=O)c2ccc(F)cc2C)c(Cl)n1	-1	6	9	30*	-6	.	1
Cc1cc(C)c(S(=O)(=O)c2ccccc2Cl)c(Cl)n1	-1	2	-1	-21	2	.	.
O=C(Cc1ccccc1)NC1(O)C(=O)c2ccccc2C1=O	-1	3	14	27*	-4	4	9
Cc1ccc(C2C(C#N)=C(N)Oc3cc4c(cc32)OCO4)cc1 (stereo unspecified)	2	-7	4	25*	12	-20	5
COc1cc(C(=O)O/N=C2\CCCc3c2ccc(OC)c3[N+](=O)[O-])cc(OC)c1OC	1	-2	11	25*	9	6	-7
COc1cc(C(=O)ON=C2C3CC4CC(C3)CC2C4)cc(OC)c1OC	-2	4	16	3	7	12	.
Cc1noc(C)c1NC(=O)N(C)C[C@H]1Oc2ccc(NC(=O)CCCCCC(=O)Nc3ccccc3N)cc2C(=O)N([C@@H](C)CO)C[C@@H]1C	.	.	.	.	.	1	.
COCCNCc1nc2sc(C)c(-c3ccccc3)c2c(=O)[nH]1	-1	-9	-3	28*	5	-18	1
Cc1sc2nc(CN3CCOCC3)[nH]c(=O)c2c1-c1ccccc1	-1	6	3	14	9	.	.
COc1ccc(NC(=O)Nc2ccc3c(c2)CC(=O)N([C@@H](C)CO)C[C@H](C)[C@@H](CN(C)S(=O)(=O)c2c(C)noc2C)O3)cc1	.	.	.	.	.	11	.
CO[C@@H]1CN(C)C(=O)c2cc(NC(=O)C3CC3)ccc2OC[C@H](C)N(Cc2cccc(F)c2)C[C@@H]1C	.	.	.	.	.	-15	.
Fc1ccc(-c2nnc(Cc3ccc(Cl)cc3)o2)cc1	-1	8	1	40*	7	-10	-2
Fc1ccc(Cc2nnc(-c3cccs3)o2)cc1	-1	-4	7	-3	3	-13	.
Cc1cc(NS(=O)(=O)c2ccc(NC(=S)NC(=O)c3cccc(S(=O)(=O)N(C)C)c3)cc2)no1	-3	3	15	29*	7	-18	38*

Molecules shown so far containing a nitro group on carbon:
Structure	MC4R barr agon	NRP1-CendR mod	ASAP1 GAP inh	ARFGAP1 inh	MC4R antag cAMP	Yeast UUG start	ARFGAP1 confirm
CN(C)/C=C/C1=C([N+](=O)[O-])C(c2cccc([N+](=O)[O-])c2)NC(=O)N1 (stereo unspecified)	1	11	-3	28*	4	10	4
COc1cc(C(=O)O/N=C2\CCCc3c2ccc(OC)c3[N+](=O)[O-])cc(OC)c1OC	1	-2	11	25*	9	6	-7

New compounds follow.
Structure | MC4R barr agon | NRP1-CendR mod | ASAP1 GAP inh | ARFGAP1 inh | MC4R antag cAMP | Yeast UUG start | ARFGAP1 confirm
Cc1cc(NS(=O)(=O)c2ccc(NS(=O)(=O)c3ccc(Br)cc3)cc2)no1 | -3 | -6 | 0 | 27* | 7 | 0 | -4
Cc1ccccc1-n1c(=O)cc(N2CCc3ccccc32)[nH]c1=O | 1 | 5 | -5 | 25* | 4 | -22 | -4
C[C@@H]1CCCCO[C@H](CN(C)S(C)(=O)=O)[C@@H](C)CN([C@@H](C)CO)C(=O)c2cc(NC(=O)NC3CCCCC3)ccc2O1 | . | . | . | . | . | 12 | .
COc1ccc(S(=O)(=O)N(C)C[C@@H]2Oc3ccc(NC(=O)CCCN(C)C)cc3C(=O)N([C@@H](C)CO)C[C@@H]2C)cc1 | . | . | . | . | . | 2 | .
O=P(OC1CCS(=O)(=O)C1)(c1ccccc1)c1ccccc1 (stereo unspecified) | -1 | 2 | 3 | 27* | 1 | 0 | -1
O=C(Nc1ccc2ccccc2c1)OC1CCS(=O)(=O)C1 (stereo unspecified) | . | 3 | -11 | 2 | . | . | .
CO[C@H]1CN(C)C(=O)c2cc(NS(C)(=O)=O)ccc2OC[C@@H](C)N(C(=O)CC2CC2)C[C@@H]1C | . | . | . | . | . | -9 | .
Brc1ccc2nc(-c3ccc(CN4CCC5(CC4)CNc4ccccc45)cc3)c(-c3ccccc3)nc2c1 | . | . | 5 | 26* | . | . | 7
C/C(=N/NC(=O)c1cccs1)c1ccc(NC(=O)COc2ccc(Cl)cc2Cl)cc1 | 1 | -2 | 9 | 38* | 0 | -17 | 53*
COc1ccccc1N1CCN(C(=O)c2cc3n(n2)C(C(F)(F)F)CC(c2ccco2)N3)CC1 (stereo unspecified) | -1 | -6 | 0 | 30* | -1 | 2 | -3
